“And” between values parts separate entries of the source, which are not always exact repeats. Equal entries are not always repeated.
Columns and labels:
[1] = tested on: HCV subgenomic RNA replicon in Huh7 cells; test: HCV subgenomic RNA replicon assay (Replicon Assay), TaqMan RT-PCR of replicon RNA after 48 h treatment; format: cell-based, hepatitis C virus (HCV); details: for IC50 INF: interferon used individually, HCV replicon RNA accumulation, 48 h, response-surface fit; for Inhibition of replicon RNA accumulation: 48 hour treatment
Excerpt: The Replicon Assay measures the amount of HCV subgenomic RNA (replicon RNA) remaining in replicon cells (Lohman et al. Science 285:110-113 (1999)) after two days of drug treatment relative to the amount of replicon RNA in untreated cells. In this assay, the potency of compounds as HCV antiviral drugs is directly proportional to the level of inhibition of replicon RNA accumulation.
The Replicon Assay employing a cell line containing the self-replicating HCV subgenomic RNA (replicon) is described in Lohmann et al. Science 285:110-113 (1999). The Genbank accession number for the sequence of the replicon used in the experiments described herein is listed in this reference as AJ242654. This paper discloses methods for in vitro transcription of RNA from the replicon cDNA, transfection of the replicon RNA into Huh7 cells by electroporation, and selection of cells containing the replicon RNA using the antibiotic G418. Huh7 cells are a hepatoma cell line obtained from Dr. William Mason at Fox Chase Cancer Research Center (Philadelphia). These cells are publicly available from Fox Chase, and have been extensively described in the scientific literature (Nakabayashi at al. Cancer Res. 42:3858-3863 (1982)). In the experiments described herein, all of the template DNA is removed from the in vitro transcribed replicon RNA preparation prior to electroporation of this RNA into Huh7 cells by multiple treatment with DNase (three sequential treatments).
The Replicon Assay is performed as described in detail below. Briefly, Replicon cells are placed in 96 well trays at a density of 10,000 cells per well and incubated 37° C. The cells are incubated in DMEM ([…]) supplemented with 10% fetal bovine serum, glutamine, nonessential amino acids, and the antibiotic G418 (0.25 mg/ml). […] Each compound is tested at six to eight different concentrations. […] Each HCV serine protease inhibitor concentration is tested without any added interferon, as well as with the addition of six to eight different interferon doses. Similarly, interferon is tested without any added HCV serine protease inhibitor. After a 48-hour incubation with the compounds, the medium is removed from the plates, and total cellular RNA is extracted from the cells using the RNeasy-96 kit manufactured by Qiagen Inc. (Valencia, Calif.). This RNA is then analyzed by quantitative RT-PCR, or TaqMan® (Applied Biosystems, Foster City Calif.). The TaqMan® RT-PCR target is the neomycin resistance gene in the replicon RNA. The plates are configured so that there are 5 replicates of each drug treatment sample, and 16 replicates of the untreated samples. This permits greater statistical confidence in the quantitative RT-PCR data.
Analysis of the Replicon Assay data yields two values that are useful in assessing the potency of potential HCV antiviral agents.

[2] = tested on: replicon cells (glyceraldehyde-3-phosphate dehydrogenase (GAPDH) mRNA levels); test: TaqMan quantitative RT-PCR of GAPDH mRNA levels in treated versus untreated replicon cells (cytotoxicity measure); details: treated versus untreated cells in the Replicon Assay
Excerpt: Inflamation Research. […] It is assumed that the level of GAPDH mRNA, which is a constitutively expressed housekeeping gene, is the same in all viable cells. […] Thus, it is postulated, as done by others using TaqMan® technology to determine the levels of particular mRNAs in human cells, that GAPDH mRNA levels are proportional to viable cell numbers (VCN) in any given sample, with the relationship of VCN=2^̂(40−CtGAPDH mRNA). The VCN is computed for each of the Replicon Assay sample wells, and then we divide the HCV Replicon RNA copy number for a specific well by the VCN for that well. Once computed, this ratio is used instead of the HCV copy number to compute inhibition (“Avg. Inh using ratio”; FIG. 14A). […] In the Replicon Assay, it is assumed that the measured inhibition of HCV RNA replicon accumulation is the sum of the actual inhibition of HCV RNA replicon accumulation and the apparent inhibition of HCV RNA replicon accumulation due to cytoxicity. […] Thus, the true anti-HCV activity of a compound in the Replicon Assay corrected for general cytotoxicity can be estimated by dividing the number of HCV replicon RNA molecules measured in each sample by the VCN, thus normalizing to the number of viable cells in each sample. […] In FIG. 14A, “Avg.

## IFN beta: "interferon beta"
[1]
  IC50 INF: 1.82 units

## interferon-alpha 2B
[1]; interferon-alpha 2B 0.0096 U alone (Compound CU 0 μM)
  Inhibition of replicon RNA accumulation: 12%
[1]; interferon-alpha 2B 0.048 U alone (Compound CU 0 μM)
  Inhibition of replicon RNA accumulation: 8%
[1]; interferon-alpha 2B 0.24 U alone (Compound CU 0 μM)
  Inhibition of replicon RNA accumulation: 16%
[1]; interferon-alpha 2B 1.2 U alone (Compound CU 0 μM)
  Inhibition of replicon RNA accumulation: 38%
[1]; interferon-alpha 2B 6 U alone (Compound CU 0 μM)
  Inhibition of replicon RNA accumulation: 73%
[1]; interferon-alpha 2B 30 U alone (Compound CU 0 μM)
  Inhibition of replicon RNA accumulation: 89%
[1]; interferon-alpha 2B alone, replicon RNA accumulation 48 h
  interferon-alpha 2B IC30: 2.05 µM
[1]; interferon-alpha 2B as single drug treatment, initial experiment, replicon RNA accumulation 48 h
  interferon IC50: 2.19 U

## interferon alpha-2B
[2]
  cytotoxicity (GAPDH mRNA levels, TaqMan RT-PCR): no significant cytotoxicity

## IFN alpha-2B: "interferon alpha-2B (Schering-Plough)"
[1]
  IC50 INF: 2.36 units and 2.53 units and 3.06 units and 1.22 units and 2.05 units
